Earlier results in US20200345862A1, “TRANSITION METAL-BASED FUNCTIONAL MOIETIES FOR PREPARING CELL TARGETING CONJUGATES” (priority 2017, published 2020).

Tests used:
[1] = test system: JIMT-1; details: single dose; JIMT-1 breast cancer xenograft; cited from earlier work
[2] = test system: NCI-N87; details: single dose; NCI-N87 gastric cancer xenograft; cited from earlier work

Substance: trastuzumab-Lx-AF
- efficacy versus trastuzumab-mal-AF and ado-trastuzumab emtansine [1]: outperformed
- efficacy versus trastuzumab-mal-AF and ado-trastuzumab emtansine [2]: outperformed
